The source of these data is PMC4527783 (PLoS ONE, 2015).

Protein sequences, listed by entry. Tags and fused reporters are not part of them. Lines headed by an entry give the natural chain unless they say otherwise; changes in a name come on top.
UniProt P41146: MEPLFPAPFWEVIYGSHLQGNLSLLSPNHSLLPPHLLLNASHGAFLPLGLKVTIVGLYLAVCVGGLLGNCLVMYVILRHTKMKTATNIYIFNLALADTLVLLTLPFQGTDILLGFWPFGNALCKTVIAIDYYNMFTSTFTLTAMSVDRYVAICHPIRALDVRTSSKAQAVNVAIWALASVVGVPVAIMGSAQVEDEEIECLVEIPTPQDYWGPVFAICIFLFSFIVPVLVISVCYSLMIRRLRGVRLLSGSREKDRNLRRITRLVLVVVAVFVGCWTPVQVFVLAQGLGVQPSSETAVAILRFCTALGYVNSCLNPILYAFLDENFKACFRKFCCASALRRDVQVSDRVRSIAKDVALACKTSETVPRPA

*1 amine or outer side, *2 acyl side, *3 side chain or, on linkers, in order; H or OH if unused. Where a SMILES comes first, the peptide text is derived from it. [ ]: non-standard residue; d: D form. X1 = N[C@@H](Cc1ccccc1)CN(CC(=O)[*:2])[*:1]; Phe(4-F) = N[C@@H](Cc1ccc(F)cc1)C(=O)O; Aib = CC(C)(N)C(=O)O

A word on the Kb: it is the equilibrium dissociation constant of an antagonist, usually derived from a functional assay. A low value points to higher antagonist affinity. As a reminder, the EC50 is the concentration giving half of the maximal effect. A higher EC50 goes with lower potency in that assay.

For test [1], the target named is T1, human NOP-RLuc/β-arrestin 2-RGFP (Homo sapiens, UniProt P41146).
In test [2] the target is T2, human NOP-RLuc/Gβ1-RGFP (Homo sapiens, UniProt P41146). Description: Constitutive NOP/G-protein coupling (basal BRET ratio), cell membranes. In kind it is biochemical. Conditions: incubation time prolonged to 15 min. On the procedure: In whole cells luminescence was recorded in 96-well sterile poly-D-lysine-coated white opaque microplates, while in membranes it was recorded in 96-well untreated white opaque microplates (PerkinElmer, Waltham, MA, USA). For the determination of NOP/β-arrestin 2 interactions, cells co-expressing NOP-Rluc and β-arrestin 2-RGFP were plated 24 h before the experiment (100,000 cells / well). The cells were prepared for the experiment substituting the medium with Dulbecco’s phosphate buffered saline (DPBS) with 0.5 mM MgCl2 and 0.9 mM CaCl2. For the determination of NOP/G-protein interaction, membranes (3 μg of protein) prepared from cells co-expressing NOP-Rluc and Gβ1-RGFP were added to wells in DPBS. Coelenterazine at a final concentration of 5 μM was always injected 10 minutes prior reading the cell plate. The receptor / G-protein interaction was measured in cell membranes to exclude the involvement of other cellular processes (i.e. arrestin recruitment, internalization). Next, different concentrations of ligands in 20 μL of PBS—BSA 0.01% (Bovine Serum Albumin, Sigma Chemical Co. (Poole, UK)) were added and incubated for an additional 5 min before reading luminescence. […]
The GPCR/G-protein interaction assessed via BRET in cell membranes is abolished by the addition of guanine nucleotides. […]
For orientation: Bioluminescence resonance energy transfer reports proximity on the nanometre scale.

Test [3] deals with T2, human NOP-RLuc/Gβ1-RGFP.
The target in test [4] is T1, human NOP-RLuc/β-arrestin 2-RGFP. Description: BRET NOP/β-arrestin 2 interaction, antagonist potency vs N/OFQ, whole cells. The following applies: for Kb: pKB (CL95%), β-arrestin 2.
In test [5] the target is T2, human NOP-RLuc/Gβ1-RGFP. Description: BRET NOP/G-protein interaction, antagonist potency vs N/OFQ, cell membranes.
The target of test [6] is T1, human NOP-RLuc/β-arrestin 2-RGFP. Description: cell-based.

Consider `CC[C@H](C)[C@H](NC(=O)[C@H](CCCNC(=N)N)NC(=O)[C@H](Cc1ccc(O)cc1)NC(=O)[C@H](Cc1ccc(O)cc1)NC(=O)[C@H](CCCNC(=N)N)NC(C)=O)C(=O)N[C@@H](CCCCN)C(N)=O` [Ac-RYYRIK-NH2], for which, in test [1], the “Emax ± sem, β-arrestin 2” value is “inactive”; the “Emax, β-arrestin 2 (Table 3)” value was “inactive”; the “pEC50 (CL95%), β-arrestin 2” value was “inactive”.

For the compound `Nc1nc2c(ncn2[C@@H]2O[C@H](COP(=O)(O)OP(=O)(O)O)[C@@H](O)[C@H]2O)c(=O)[nH]1` [GDP], the “inhibition of basal BRET” value on human NOP-RLuc/Gβ1-RGFP [2] is 5%.

With `Cc1cccc2c1CC[C@H](CN1CCC(c3c(Cl)cccc3Cl)CC1)C[C@@H]2O` [SB-612111, (-)-cis-1-methyl-7-[[4-(2,6-dichlorophenyl)piperidin-1-yl]methyl]-6,7,8,9-tetrahy dro-5H-benzocyclohepten-5-ol], on human NOP-RLuc/Gβ1-RGFP [3], the “Emax ± sem, G protein” value was “inactive”; the “Emax, G protein (Table 3)” value is “inactive”; the “pEC50 (CL95%), G protein” value was “inactive”; the “pEC50, G protein (Table 3)” value is “inactive”. Moreover, in test [1], the “Emax ± sem, β-arrestin 2” value was “inactive”; the “Emax, β-arrestin 2 (Table 3)” value is “inactive”; the “pEC50 (CL95%), β-arrestin 2” value was “inactive”. The “antagonism of N/OFQ, β-arrestin 2 (in words)” value in test [4] is “expected competitive inhibition”.

`C[C@H](NC(=O)CNC(=O)[C@@H](NC(=O)[C@H](Cc1ccccc1)NC(=O)CNC(=O)CNC(=O)CNCc1ccccc1)[C@@H](C)O)C(=O)N[C@@H](CCCNC(=N)N)C(=O)N[C@@H](CCCCN)C(=O)N[C@@H](CO)C(=O)N[C@@H](C)C(=O)N[C@@H](CCCNC(=N)N)C(=O)N[C@@H](CCCCN)C(=O)N[C@@H](CCCNC(=N)N)C(=O)N[C@@H](CCCCN)C(=O)N[C@@H](CC(N)=O)C(=O)N[C@@H](CCC(N)=O)C(N)=O` [UFP-101, [Nphe1,Arg14,Lys15]nociceptin-NH2] showed a Kb on human NOP-RLuc/Gβ1-RGFP [5] of 21.9 nM.

As for `C[C@H](NC(=O)[C@H](CO)NC(=O)[C@H](CCCCN)NC(=O)[C@H](CCCNC(=N)N)NC(=O)C(C)(C)NC(=O)CNC(=O)[C@@H](NC(=O)[C@H](Cc1ccc(F)cc1)NC(=O)CNC(=O)CNC(=O)[C@@H](N)Cc1ccccc1)[C@@H](C)O)C(=O)N[C@@H](CCCNC(=N)N)C(=O)N[C@@H](CCCCN)C(=O)N[C@@H](CCCNC(=N)N)C(=O)N[C@@H](CCCCN)C(=O)N[C@@H](CC(N)=O)C(=O)N[C@@H](CCC(N)=O)C(N)=O` [UFP-112], the EC50 in test [6] was 4.27 nM.

For the compound `C[C@H](NC(=O)[C@H](CO)NC(=O)[C@H](CCCCN)NC(=O)[C@H](CCCNC(=N)N)NC(=O)C(C)(C)NC(=O)CNC(=O)[C@@H](NC(=O)[C@H](Cc1ccc(F)cc1)NC(=O)CNC(=O)CNC[C@@H](N)Cc1ccccc1)[C@@H](C)O)C(=O)N[C@@H](CCCNC(=N)N)C(=O)N[C@@H](CCCCN)C(=O)N[C@@H](CCCNC(=N)N)C(=O)N[C@@H](CCCCN)C(=O)N[C@@H](CC(N)=O)C(=O)N[C@@H](CCC(N)=O)C(N)=O` [UFP-113] (H-[X1]G[Phe(4-F)]TG[Aib]RKSARKRKNQ-NH2), in test [1], the “Emax ± sem, β-arrestin 2” value is “inactive”; the “Emax, β-arrestin 2 (Table 3)” value was “inactive”; the “concentration ratio (CR), β-arrestin 2” value was “inactive”; the “pEC50 (CL95%), β-arrestin 2” value is “inactive”. The Kb in test [4] was 0.38 nM.

The compound `C[C@H](NC(=O)CNC(=O)[C@@H](NC(=O)[C@H](Cc1ccccc1)NC(=O)CNC(=O)CNC[C@@H](N)Cc1ccccc1)[C@@H](C)O)C(=O)N[C@@H](CCCN=C(N)N)C(=O)N[C@@H](CCCCN)C(=O)N[C@@H](CO)C(=O)N[C@@H](C)C(=O)N[C@@H](CCCN=C(N)N)C(=O)N[C@@H](CCCCN)C(N)=O` [[F/G]N/OFQ(1–13)-NH2, [Phe^1ψ(CH2-NH)Gly^2]N/OFQ(1–13)-NH2] (H-[X1]GFTGARKSARK-NH2) showed a Kb in test [4] of 30.2 nM.

For the compound `C[C@H](NC(=O)CNC(=O)[C@@H](NC(=O)[C@H](Cc1ccccc1)NC(=O)CNC(=O)CNC[C@@H](N)Cc1ccccc1)[C@@H](C)O)C(=O)N[C@@H](CCCNC(=N)N)C(=O)N[C@@H](CCCCN)C(=O)N[C@@H](CO)C(=O)N[C@@H](C)C(=O)N[C@@H](CCCNC(=N)N)C(=O)N[C@@H](CCCCN)C(N)=O` [[F/G]N/OFQ(1–13)-NH2, [Phe^1ψ(CH2-NH)Gly^2]N/OFQ(1–13)-NH2] (H-[X1]GFTGARKSARK-NH2), in test [1], the “Emax ± sem, β-arrestin 2” value was “inactive”; the “Emax, β-arrestin 2 (Table 3)” value was “inactive”; the “concentration ratio (CR), β-arrestin 2” value was “inactive”; the “pEC50 (CL95%), β-arrestin 2” value is “inactive”.
